Measured affinities in a library of Ab-14 heavy chain variants

The target is the same throughout: PDVDLGDISGINAS, from the HR2 region of SARS-CoV-2 spike.

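Phage display of a naive human antibody library on the peptide gave the parent. The library (AAYL49) carries one to three amino acid substitutions per variant, with no insertions or deletions. In AlphaSeq, yeast of one mating type display the scFv and yeast of the other type display the target. After mating in shaken culture at 30 °C for 16 h, diploids were selected and their barcode pairs sequenced. Scores were corrected for input abundance and mapped to Kd with protein pairs of known affinity run in the same pool. Each pool was mated in three replicate cultures.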

Parent: Ab-14, a human scFv built as VH, the linker GGGGSGGGGSGGGGS, VL. Only the CDRs of the heavy chain vary.
VH: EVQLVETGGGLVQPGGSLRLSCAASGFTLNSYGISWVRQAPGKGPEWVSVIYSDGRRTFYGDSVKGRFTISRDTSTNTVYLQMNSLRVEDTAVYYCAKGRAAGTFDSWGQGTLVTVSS
VL: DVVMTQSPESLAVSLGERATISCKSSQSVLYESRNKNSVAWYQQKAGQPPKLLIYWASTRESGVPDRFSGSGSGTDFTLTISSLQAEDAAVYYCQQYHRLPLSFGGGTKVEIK

Variants are written as CDR1, CDR2 and CDR3 of the heavy chain (limits as in the source). Parent: GFTLNSYGIS, VIYSDGRRTFYGDSVK, GRAAGTFDS. All variants listed here change T28 of the VH, counted from its first residue. Affinities are written as log10 Kd with Kd in nM; a lower number is a better binder. Replicates are averaged; those with no signal do not enter the mean. "no signal" marks a missing value. The strain was present, yet no cells mated with the target were sequenced in any replicate, which points to weak or no binding. In this assay the parent's reference entry averaged 0.65; its copy inside this library read 4.11 (one replicate of three). Three control strains display no target. For library AAYL49, 15% of the pairings with them gave a signal, with a median of 4.06 and one signal in twenty below 2.83, so weak values seen in few replicates may be background.

* GFILNSYGII / VIYSDGRRTFYGDSVK / GRAAGGFDS: no signal (0 of 3 replicates)
* GFDLNSYGIS / VIESDGRATFYGDSVK / GRAAGTFDS: 5.01 (2 of 3 replicates)
* GVQLNSYGIS / VIYSDGRRTFYGDSVK / GRAAGTFNS: 2.86 (3 of 3 replicates)
* GFCLNSYGIS / VIYSDGRRTFYGDSVK / YRAAGTFDS: no signal (0 of 3 replicates)
* GFDLNSYIIS / VIMSDGRRTFYGDSVK / GRAAGTFDS: 4.84 (1 of 3 replicates)
* GFFLNSYGIS / VIYSDGRRTFYGDSVK / GRAAYTFDS: no signal (0 of 3 replicates)
* GFCLNSYGIS / VIYCDGRRTFYGDSVK / GRTAGTFDS: 3.80 (2 of 3 replicates)
* GFFLVSYGIP / VIYSDGRRTFYGDSVK / GRAAGTFDS: 4.61 (2 of 3 replicates)
* GPRLNSYGIS / VIYSDGRRTFYGDSTK / GRAAGTFDS: no signal (0 of 3 replicates)
* GFSLNSYGIS / VIYEDGRRTFYGDSVK / GRQAGTFDS: 2.76 (1 of 3 replicates)
* GFHLNSYGIS / VIYSDGRRTFVGDSVK / GRAAGFFDS: no signal (0 of 3 replicates)
* GFCLNSYGIS / EIYSDGRRTFYGDSHK / GRAAGTFDS: 3.21 (1 of 3 replicates)
* GFELNSYGIS / VIYSDGRRTFAGDSFK / GRAAGTFDS: 1.55 (3 of 3 replicates)
* GFDLNSYGIS / VIYSDGRRTFYGDSVK / GRAAGWFNS: -0.14 (3 of 3 replicates)
* GFPLNSYGIS / VIYSDGRRTFYGDSVK / GRAANTFPS: 0.71 (3 of 3 replicates)
* GFELNSYGQS / VIYSDGRRTFCGDSVK / GRAAGTFDS: 4.34 (2 of 3 replicates)
* GFVLASYGIS / VIYSDGRRTFYGDSVK / LRAAGTFDS: 2.73 (2 of 3 replicates)
* GFMLNSYLIS / VIYSDGRRTFYGDSVK / GRAAGTFDF: 5.03 (1 of 3 replicates)
* GFGLPSYGIS / VIISDGRRTFYGDSVK / GRAAGTFDS: no signal (0 of 3 replicates)
* GFKLNSGGII / VIYSDGRRTFYGDSVK / GRAAGTFDS: 2.84 (1 of 3 replicates)
* GFFLNSYGIS / VIYSNGRRTFYGDSVK / GRAMGTFDS: no signal (0 of 3 replicates)
* GFGNNSYGIS / HIYSDGRRTFYGDSVK / GRAAGTFDS: no signal (0 of 3 replicates)
* TFQLNSYGIS / VIYSDGRRTFYGDSVK / GRAAGTGDS: 3.81 (1 of 3 replicates)
* GFLLNSYGIS / VIYSDGRRTFSGDSVP / GRAAGTFDS: no signal (0 of 3 replicates)
* GFELNSYGIS / VIYSDGRATFYGDSVK / GRAAGTFDS: 2.92 (1 of 3 replicates)
* GFLMNSYGIS / VIYSGGRRTFYGDSVK / GRAAGTFDS: no signal (0 of 3 replicates)
* GVMLNSYKIS / VIYSDGRRTFYGDSVK / GRAAGTFDS: 6.10 (1 of 3 replicates)
* GFDLNSYGIA / VIYSDGRRTFYGDSVK / GRAAGDFDS: no signal (0 of 3 replicates)
* GFILNQYGSS / VIYSDGRRTFYGDSVK / GRAAGTFDS: 3.93 (1 of 3 replicates)
* GFCLNSYGIS / VRYSDGRRTFYGDSVK / MRAAGTFDS: no signal (0 of 3 replicates)

Extract of 3 entries:

CDR-H1,CDR-H2,CDR-H3,"mean, log10 nM",seen in
GFLLNSYGIS,VIYSDGRRTFSGDSVP,GRAAGTFDS,no signal,0 of 3
TFQLNSYGIS,VIYSDGRRTFYGDSVK,GRAAGTGDS,3.81,1 of 3
GFDLNSYGIS,VIESDGRATFYGDSVK,GRAAGTFDS,5.01,2 of 3

Source: Engelhart et al. 2022 (doi:10.1038/s41597-022-01779-4), MIT Lincoln Laboratory and A-Alpha Bio; data file from the FLAb repository.